Data on one compound can be found in patent US5462954A, “Substituted phenyl phenol leukotriene antagonists” (Eli Lilly and Company, priority 1994, dated 1995).

The chains behind the UniProt entries cited, without tags or fusion partners. Residues count along the entry.
UniProt H0VYV8, 1-348: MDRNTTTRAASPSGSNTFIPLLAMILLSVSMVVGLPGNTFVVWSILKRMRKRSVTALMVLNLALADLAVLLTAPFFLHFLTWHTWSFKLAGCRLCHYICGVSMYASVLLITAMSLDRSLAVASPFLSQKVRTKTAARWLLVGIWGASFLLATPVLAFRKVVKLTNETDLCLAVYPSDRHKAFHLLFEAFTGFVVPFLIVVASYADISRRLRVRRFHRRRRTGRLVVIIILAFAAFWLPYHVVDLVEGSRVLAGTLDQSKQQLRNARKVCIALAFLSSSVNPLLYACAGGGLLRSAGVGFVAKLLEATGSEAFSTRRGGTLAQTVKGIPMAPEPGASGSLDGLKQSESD

Counter-ions that a name gives are not always drawn.

The assay has as its target binding of tritiated LTB4 to guinea pig lung membranes (Cavia porcellus, UniProt H0VYV8). Put plainly: biochemical. Conditions: read-out: pKi (mean -log Ki) (converted).

By Ki is commonly meant a dissociation constant, usually derived from enzyme kinetics or from competition with a known ligand. On to `CCc1cc(-c2cc(Cl)cc(Cl)c2)c(O)cc1OCCCCCC(C)(C)c1nn[nH]n1` [monosodium salt], for which the Ki was 26.3 nM.
